This is a selection: effects in other tests are not listed, and their absence says nothing.
Experiment: Worst-case calculation, Application 3 coffee capsule exposure scenario

Q: Which “Worst-case calculation as a percentage of SML (or restriction), Application 3 (0.0913 m2 packaging)” value (product SBDEV977, 100% migration) does the source give for `OCCN(CCO)CCO` here?
A: 3.0 percentage of SML (or restriction)

Q: What about the “Worst-case calculation as a percentage of SML (or restriction), Application 3 (0.0913 m2 packaging)” value (product SBDEV1287, 100% migration) of the same compound?
A: 3.0 percentage of SML (or restriction)

— US11927585B2, “Solvent-based inks and coatings for food contact applications” (SUN CHEMICAL CORPORATION, priority 2020, dated 2024)
